One test has as its target PPARγ (Homo sapiens, UniProt P37231). As to the kind of experiment: PPARγ agonist activity test (luciferase reporter gene). The note with it: relative to Rosiglitazone; tested form: free. The test is classed as cell-based.
A further test has as its target murine sEH (MsEH) (Mus musculus, UniProt P34914). The note with it: tested form: free.
Test [1] addresses recombinant human sEH (HsEH) (Homo sapiens, UniProt P34913). The note with it: read-out: HsEH IC50, PHOME substrate, tested form: free.

Protein sequences, listed by entry. Tags and fused reporters are not part of them. Residues count along the entry.
UniProt P37231, 204-505 limits assumed: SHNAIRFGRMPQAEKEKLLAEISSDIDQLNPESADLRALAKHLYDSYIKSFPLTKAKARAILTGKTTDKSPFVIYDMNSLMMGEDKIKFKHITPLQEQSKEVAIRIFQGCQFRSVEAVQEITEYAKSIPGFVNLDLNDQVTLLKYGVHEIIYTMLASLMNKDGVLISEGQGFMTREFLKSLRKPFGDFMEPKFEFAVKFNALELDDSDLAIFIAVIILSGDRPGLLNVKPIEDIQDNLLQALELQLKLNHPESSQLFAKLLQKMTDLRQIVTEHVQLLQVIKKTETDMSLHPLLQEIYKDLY
UniProt P34914, whole entry: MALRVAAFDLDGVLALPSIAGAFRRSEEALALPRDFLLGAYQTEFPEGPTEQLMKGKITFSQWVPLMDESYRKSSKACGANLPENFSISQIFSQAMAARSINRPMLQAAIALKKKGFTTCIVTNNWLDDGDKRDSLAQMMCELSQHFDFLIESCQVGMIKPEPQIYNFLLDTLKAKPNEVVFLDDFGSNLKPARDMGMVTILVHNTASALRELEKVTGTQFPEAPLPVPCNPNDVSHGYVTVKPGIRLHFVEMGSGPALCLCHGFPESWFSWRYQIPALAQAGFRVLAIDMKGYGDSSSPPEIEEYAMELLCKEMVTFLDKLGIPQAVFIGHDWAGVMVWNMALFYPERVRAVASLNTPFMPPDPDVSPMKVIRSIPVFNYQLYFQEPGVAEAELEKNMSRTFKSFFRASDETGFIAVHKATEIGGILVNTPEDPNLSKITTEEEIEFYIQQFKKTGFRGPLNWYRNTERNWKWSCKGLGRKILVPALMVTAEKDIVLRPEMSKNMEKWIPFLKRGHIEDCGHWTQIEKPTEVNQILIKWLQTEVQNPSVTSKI
UniProt P34913, whole entry: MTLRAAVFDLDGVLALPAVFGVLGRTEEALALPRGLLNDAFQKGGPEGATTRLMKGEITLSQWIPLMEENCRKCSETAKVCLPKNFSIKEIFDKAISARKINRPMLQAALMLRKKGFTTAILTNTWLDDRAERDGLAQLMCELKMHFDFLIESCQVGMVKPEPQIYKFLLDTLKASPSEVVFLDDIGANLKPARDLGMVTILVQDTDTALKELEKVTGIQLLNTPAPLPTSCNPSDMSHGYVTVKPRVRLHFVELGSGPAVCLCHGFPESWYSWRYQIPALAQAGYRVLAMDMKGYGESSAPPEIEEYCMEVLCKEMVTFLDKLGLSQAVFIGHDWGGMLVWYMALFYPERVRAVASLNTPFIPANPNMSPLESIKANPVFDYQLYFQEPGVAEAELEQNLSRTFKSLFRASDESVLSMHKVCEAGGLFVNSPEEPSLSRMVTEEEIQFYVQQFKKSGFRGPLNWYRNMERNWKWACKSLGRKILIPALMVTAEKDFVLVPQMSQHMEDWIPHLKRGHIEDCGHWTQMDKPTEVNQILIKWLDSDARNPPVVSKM

Structures are written as SMILES. pIC50: −log10 of the molar value.

Consider one compound from patent EP4563573A1, “COMPOUND, AND PREPARATION METHOD THEREFOR AND USE THEREOF IN PREPARATION OF SEH INHIBITOR AND PPARS AGONIST” (Shenyang Pharmaceutical University, priority 2023, dated 2024).

With `O=C(O)CC(=O)Nc1ccc(O[C@H]2CC[C@H](NC(=O)Nc3ccc(OC(F)(F)F)c(F)c3)CC2)cc1`, at PPARγ, the “PPARγ (compared with Rosiglitazone, %)” value came out at 0.6%. In addition, the pIC50 is 8.85 on murine sEH (MsEH) and 9.22 in test [1].

One may read the pIC50 as the IC50 on a negative log10 scale, so that one unit is a factor of ten.
